Legend:
[1] = target: T1, Heat shock protein HSP 90-alpha (Homo sapiens, UniProt P07900); assay: Binding affinity to human recombinant full length biotinylated Hsp90alpha assessed as association constant by biolayer interferometric analysis
[2] = target: T1, Heat shock protein HSP 90-alpha; assay: Binding affinity to human recombinant full length biotinylated Hsp90alpha assessed as dissociation constant by biolayer interferometric analysis

C/C(=C\CC12OCC3CC(C=C4C(=O)c5c(O)cccc5OC431)C2=O)CO (configuration not stated)
K [1]: 317 M⁻¹ s⁻¹
K [2]: 1.21 ×10⁻² /s

Reference: ChEMBL document CHEMBL4431352, “Structure-activity relationship of Garcinia xanthones analogues: Potent Hsp90 inhibitors with cytotoxicity and antiangiogenesis activity” (Bioorg Med Chem, 2016)
